Laboratory results as given in patent US20040176294A1, “Use of thyroid-stimulating hormone to induce lipolysis” (priority 2003, published 2004).

Experiments:
[1] = test system: 3T3 L1 adipocytes; test: Lipolysis (glycerol and FFA accumulation) in 3T3 L1 adipocytes; format: cell-based, murine; conditions: 4 hours
Description: 3T3 L1 adipocytes were treated with TSH and the non-specific β-adrenoreceptor agonist isoproterenol for 4 hours. Lipolysis was assessed by the accumulation of glycerol and FFAs in the conditioned medium.
Free fatty acids were measured using the Wako NEFA C kit (Wako Chemicals GmbH, Neuss, Germany) for quantitative determination of non-esterified (or free) fatty acids with a modified protocol. Isoproterenol (ICN), a lipolysis-inducing positive control, was diluted to a starting concentration of 2 μM in assay medium (Life Technologies low glucose DMEM, 1 mM sodium pyruvate, 2 mM L-glutamine, 20 mM HEPES, and 0.5% BSA). The isoproterenol was further diluted in half log serial dilutions. TSH was serially diluted down to 0.06 nM. The medium was removed from 3T3 L1 adipocytes in 96-well plates. 50 μl of assay medium were added to each well, followed by 50 μl of TSH or isoproterenol to each well. The plates were incubated for 4 hours at 37° C. 40 μl of conditioned medium were collected for glycerol assay analysis, and 40 μl of conditioned medium were collected for free fatty acid analysis. Oleic acid (Sigma) was dissolved in methanol and used as a reference for determining the amount of free fatty acids in the conditioned media. Wako reagents A and B were reconstituted to 4× the recommended concentration. Conditioned media samples were assayed in 96-well plates. 50 μl of Wako reagent A were added to 5 μl of oleic acid standard plus 40 μl of assay medium. 50 μl of Wako reagent A were added to 40 μl of conditioned medium from differentiated 3T3 L1 cells and 5 μl of methanol. The 96-well plates were incubated at 37° C. for 10 minutes. 100 μl of Wako reagent B were added to each well. The 96-well plates were incubated at 37° C. for 10 minutes. The 96-well plates were then allowed to sit at room temperature for 5 minutes. The 96-well plates were centrifuged in a Beckman Coulter Allegra 6R centrifuge at 3250×g for 5 minutes to remove air bubbles. The absorbance at 530 nm was measured on the Wallac Victor2 Multilabel counter.
Glycerol was measured in conditioned media using the Sigma Triglyceride (GPO-Trinder) kit with a modified protocol. Isoproterenol was diluted to a starting concentration of 2 μM. The isoproterenol was further diluted in half log serial dilutions. TSH was diluted to starting concentrations of 300 nM in assay medium. TSH was then serially diluted down to 0.06 nM. Medium was removed from 3T3 L1 adipocytes in 96-well plates. 50 μl of assay medium were added to each well, followed by 50 μml of TSH or isoproterenol to each well. The plates were incubated for 4 hours at 37° C. […] The absorbance at 530 nm was measured on the Wallac Victor2 Multilabel counter.

[2] = test system: male ob/ob mice; conditions: mouse, in vivo
Description: (§1) 11-week old male ob/ob mice were individually caged and given a standard lab chow (4% fat) with free access to food and water. Animals were assigned to a treatment group (n=7-8, average weight 54.3+/−0.3 g per group), kept on a 12 hour dark cycle (6 PM to 6 AM), and injected each day between 7 and 9 AM. Chow consumed by each animal was weighed twice weekly. All animals received treatments IP with an injection volume of 0.1 ml. TSH was administered at 267 μg/kg, and the H3-AR agonist CL 316,243 at 0.75 mg/kg. Thyroid hormone (T4) was administered at 1.5 μg/mouse for 4 days, reduced to 1 [μg/mouse for 10 days, and returned to 1.5 μg/mouse for the next 14 days. The vehicle controls received sterile saline. TSH was obtained from Genzyme Pharmaceuticals, (Thyrogen®, catalog number 36778; Genzyme Corporation, Cambridge, Mass.), CL316,243 from Sigma Biochemicals, and T4 obtained from Calbiochem, Inc. All blood draws were performed by retro-orbital puncture under isoflurane anesthesia.
After 25 days of treatment as described above, blood was sampled from all treated animals (n=7-8/group), serum separated, and analyzed for total T4 by a commercially available kit (Biocheck, Burlingame, Calif.). […] After 25 days of treatment, the vehicle T4 levels were 5.14+/−0.08 μg/dl. […]

[3] = test system: male ob/ob mice; test: Chronic treatment of ob/ob mice: intraperitoneal glucose tolerance test (IPGTT); format: in vivo; conditions: 4 weeks of treatment
Description: as §1
Following 4 weeks of daily treatment as described above, mice (n=4/group) were fasted for four hours immediately following the beginning of the light cycle, and a blood sample obtained before IP injection of a glucose solution (1.5 g/kg body weight). Blood samples were obtained at 20, 40, and 120 minutes following injection to evaluate changes in serum glucose and insulin. Glucose concentrations were determined with a Freestyle blood glucose monitor (Therasense Corp.), and insulin concentrations were determined with a commercial ELISA kit (Alpco Diagnostics, Windham N. H.).

## TSH: ~30 kDa glycoprotein of two non-covalently linked alpha and beta subunits; Thyrogen, Genzyme Corporation
[1]; 3T3-L1 adipocytes
  concentration at which lipolysis is significantly stimulated: 1 nM
  concentration producing near maximal levels of extracellular glycerol and FFA: 10 nM
  maximal lipolysis relative to that produced by isoproterenol: approximately 50%
[1]; 3T3 L1 adipocytes, glycerol and FFA
  stimulation of lipolysis: potently stimulated lipolysis
[2]
  circulating thyroid hormone (T4) versus vehicle controls: do not increase above the levels found in the vehicle controls
  total T4 in serum: 5.31 ± 0.16 µg/dL
[3]; fasted four hours, n=4
  baseline blood glucose: 114 ± 7 mg/dL
[3]; IPGTT glucose 1.5 g/kg
  insulin sensitivity and glucose clearance versus vehicle: exhibited increased insulin sensitivity and increased clearance of the glucose load
  serum glucose at 120 minutes post glucose injection: 361 ± 37 mg/dL
